Results from PMC8924211 (Nature Communications, 2022).

Experiments:
Assay in all cases: Calcium assay, HEK293/Gα16 cells, GAL2R mutants
Format in all cases: cell-based
GAL2R mutants [1] = target: T1, GAL2R mutants (Homo sapiens, UniProt O43603, V259A); conditions: GAL2R V2596.58A; spexin, HEK293/Gα16; mean ± S.E.M.
T1 construct: expressed in transfected cells; host or cells: HEK293
T1 sequence (O43603 1-387 V259A): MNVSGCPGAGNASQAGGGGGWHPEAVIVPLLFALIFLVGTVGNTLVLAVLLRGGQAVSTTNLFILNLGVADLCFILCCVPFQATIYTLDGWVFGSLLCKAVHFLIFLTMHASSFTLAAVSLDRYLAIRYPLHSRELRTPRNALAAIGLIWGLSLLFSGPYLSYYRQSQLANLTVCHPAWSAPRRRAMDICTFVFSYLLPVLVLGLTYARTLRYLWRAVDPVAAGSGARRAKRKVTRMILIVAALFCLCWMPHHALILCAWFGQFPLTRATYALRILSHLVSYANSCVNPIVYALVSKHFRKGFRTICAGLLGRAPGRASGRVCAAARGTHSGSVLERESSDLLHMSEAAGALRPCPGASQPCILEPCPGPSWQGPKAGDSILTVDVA

GAL2R mutants [2] = target: T2, GAL2R mutants (Homo sapiens, UniProt O43603, H102A); conditions: GAL2R H1023.29A, spexin
T2 construct: expressed in transfected cells; host or cells: HEK293
T2 sequence (O43603 1-387 H102A): T1 sequence (O43603 1-387 V259A) with H102A, A259V

GAL2R mutants [3] = target: T3, GAL2R mutants (Homo sapiens, UniProt O43603, L255A); conditions: GAL2R L2556.54A, spexin
T3 construct: expressed in transfected cells; host or cells: HEK293
T3 sequence (O43603 1-387 L255A): T1 sequence (O43603 1-387 V259A) with L255A, A259V

GAL2R mutants [4] = target: T4, GAL2R mutants (Homo sapiens, UniProt O43603, I256A); conditions: GAL2R I2566.55A, spexin
T4 construct: expressed in transfected cells; host or cells: HEK293
T4 sequence (O43603 1-387 I256A): T1 sequence (O43603 1-387 V259A) with I256A, A259V

GAL2R mutants [5] = target: T5, GAL2R mutants (Homo sapiens, UniProt O43603, Y164A); conditions: GAL2R Y1644.64A, spexin
T5 construct: expressed in transfected cells; host or cells: HEK293
T5 sequence (O43603 1-387 Y164A): T1 sequence (O43603 1-387 V259A) with Y164A, A259V

GAL2R mutants [6] = target: T6, GAL2R mutants (Homo sapiens, UniProt O43603, I85A); conditions: GAL2R I852.64A, spexin
T6 construct: expressed in transfected cells; host or cells: HEK293
T6 sequence (O43603 1-387 I85A): T1 sequence (O43603 1-387 V259A) with I85A, A259V

## spexin
GAL2R mutants [1]
  EC50: 4700 ± 1690 nM
GAL2R mutants [2]; replicate 1
  EC50: no response
GAL2R mutants [2]; replicate 2
  EC50: no response
GAL2R mutants [2]; replicate 3
  EC50: no response
GAL2R mutants [3]; HEK293/Gα16, mean ± S.E.M.
  EC50: 1770 ± 1240 nM
GAL2R mutants [3]; replicate 1
  EC50: 4220 nM
GAL2R mutants [4]; HEK293/Gα16, mean ± S.E.M.
  EC50: 679 ± 140 nM
GAL2R mutants [4]; replicate 1
  EC50: 674.3 nM
GAL2R mutants [5]; replicate 1
  EC50: no response
GAL2R mutants [5]; replicate 2
  EC50: no response
GAL2R mutants [5]; replicate 3
  EC50: no response
GAL2R mutants [6]; replicate 1
  EC50: no response
GAL2R mutants [6]; replicate 2
  EC50: no response
GAL2R mutants [6]; replicate 3
  EC50: no response

Where a chain is given by its changes, count along the chain named.
